The numbers were not newly measured in patent US20240180923A1, “METHODS OF TREATING DISORDERS WITH ULK INHIBITORS” (Deciphera Pharmaceuticals, LLC, priority 2022, published 2024), which cites them from elsewhere.

For the data set the following is noted: cetuximab 500 mg/m^2 Q2W versus 250 mg/m^2 QW; cited from earlier work.

cetuximab: the “Cmin at steady state, 500 mg/m^2 Q2W lower than 250 mg/m^2 QW” value is 23-25%.
